Results taken from PubChem BioAssay AID720704 (The Scripps Research Institute Molecular Screening Center, 2013).
Only a part is listed here, and it is no random draw. Active and inactive are the calls of the source. Cut-off read from the data, not from the text of the source: active = inhibition above about 11%; inactive = the rest.

The chains behind the UniProt entries cited, without tags or fusion partners.
UniProt Q01970, whole entry, looked up: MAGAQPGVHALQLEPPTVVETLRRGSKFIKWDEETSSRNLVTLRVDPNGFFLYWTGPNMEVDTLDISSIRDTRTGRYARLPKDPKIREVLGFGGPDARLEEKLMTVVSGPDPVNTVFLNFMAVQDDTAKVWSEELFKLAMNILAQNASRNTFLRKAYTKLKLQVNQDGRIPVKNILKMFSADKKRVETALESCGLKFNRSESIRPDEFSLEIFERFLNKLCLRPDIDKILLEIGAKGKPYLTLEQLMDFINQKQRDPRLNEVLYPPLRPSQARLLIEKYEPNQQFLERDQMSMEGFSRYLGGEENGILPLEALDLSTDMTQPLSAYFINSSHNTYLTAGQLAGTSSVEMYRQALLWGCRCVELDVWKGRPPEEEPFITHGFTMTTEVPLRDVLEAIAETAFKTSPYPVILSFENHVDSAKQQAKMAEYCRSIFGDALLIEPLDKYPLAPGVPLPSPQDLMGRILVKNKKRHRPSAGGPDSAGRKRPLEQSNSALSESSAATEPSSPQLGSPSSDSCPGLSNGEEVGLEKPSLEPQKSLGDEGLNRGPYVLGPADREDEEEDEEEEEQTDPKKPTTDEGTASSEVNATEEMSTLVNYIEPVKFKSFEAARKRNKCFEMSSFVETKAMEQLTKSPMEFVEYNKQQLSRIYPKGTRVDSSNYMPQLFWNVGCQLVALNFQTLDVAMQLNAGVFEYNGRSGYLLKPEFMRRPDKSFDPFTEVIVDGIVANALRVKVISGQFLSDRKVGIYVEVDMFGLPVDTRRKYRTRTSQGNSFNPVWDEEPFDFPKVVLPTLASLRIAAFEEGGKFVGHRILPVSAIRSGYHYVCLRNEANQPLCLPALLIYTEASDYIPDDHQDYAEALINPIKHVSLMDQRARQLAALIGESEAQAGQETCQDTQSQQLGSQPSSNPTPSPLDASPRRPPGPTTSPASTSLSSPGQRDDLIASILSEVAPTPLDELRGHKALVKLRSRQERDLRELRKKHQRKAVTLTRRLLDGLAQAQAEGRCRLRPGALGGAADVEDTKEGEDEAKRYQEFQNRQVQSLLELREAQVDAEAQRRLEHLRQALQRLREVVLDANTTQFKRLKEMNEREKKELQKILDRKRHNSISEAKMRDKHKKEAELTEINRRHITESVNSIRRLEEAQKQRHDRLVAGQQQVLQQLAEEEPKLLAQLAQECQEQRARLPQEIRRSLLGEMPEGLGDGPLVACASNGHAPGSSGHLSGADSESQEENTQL

Each molecule was assayed against 1-phosphatidylinositol 4,5-bisphosphate phosphodiesterase beta-3 (Homo sapiens) (UniProt Q01970) (assay: phospholipase C beta3 enzyme inhibition – biochemical, fluorescence, primary screen (AID 720704;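 note: 0% = median of compound wells on plate and 100% = full blocker control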)). Conditions: Purified PLC-beta3, fluorogenic substrate, at 12.2 µM, hits give high values.
In the case of O=C(Nc1cc([As](=O)(O)O)ccc1O)c1ccccc1, the inhibition is reported as inactive: -3.47%.
O=P1(N(CCCl)CCCl)OCCCS1 (configuration not stated) was tested, and the inhibition was inactive: 0.74%.
O=C(O)CNc1ccc([As](=O)(O)O)cc1 was tested, and the inhibition was inactive: -4.58%.
O=[N+]([O-])c1cccc(NC2=NCC(CBr)S2)c1 (configuration not stated) was tested, and the inhibition was inactive: -2.19%.
COC(=O)C1(C)COP(=O)(Nc2ccccc2)OC1 (configuration not stated) was tested, and the inhibition was inactive: 2.84%.
With O=[N+]([O-])c1ncn(CCn2ncnc2[N+](=O)[O-])n1 the inhibition was inactive: 4.44%.
With CC(C)(C)C(=O)NC(Sc1ccncn1)C(Cl)(Cl)Cl (configuration not stated) the inhibition was inactive: -4.59%.
CCc1nc2c(n1)c1c(non1O)c1c2no[n+]1[O-] was tested, and the inhibition was inactive: 0.85%.
O=[N+]([O-])c1cc([N+](=O)[O-])c(CCNc2ccccc2)c([N+](=O)[O-])c1 was tested, and the inhibition was inactive: 2.16%.
In the case of Cc1ccc(NP(=O)(Oc2ccccc2)Oc2ccccc2)nc1, the inhibition is reported as inactive: -5.36%.
In the case of O=[N+]([O-])c1cccc2n[nH]nc12, the inhibition is reported as inactive: -1.55%.
CC(=O)N1C2C3N(C(C)=O)C1C1N(C(C)=O)C(C(N1C(C)=O)N3C(C)=O)N2C(C)=O was tested, and the inhibition was inactive: 0.74%.
In the case of COc1ccc(C2=NCC(CBr)S2)cc1 (configuration not stated), the inhibition is reported as inactive: -7.55%.
For c1cc(-c2nn[nH]n2)ccc1-c1nn[nH]n1, the inhibition was inactive: 2.87%.
With CC1CCN(C(=O)Oc2c(Cl)cc(Cl)c3cccnc23)CC1 the inhibition was inactive: 0.08%.
In the case of CN(C)C(=O)OCCc1n(C)cc[n+]1C, the inhibition is reported as inactive: 4.96%.
CC(C)=N/N=C(\N)N[N+](=O)[O-] was tested, and the inhibition was inactive: -0.02%.
CC(C)c1nc(Nc2ccccc2)n(P(=O)(N(C)C)N(C)C)n1 was tested, and the inhibition was inactive: 5.86%.
In the case of CCN(/C(=N/P(=O)(N1CCOCC1)N1CCOCC1)N1CCOCC1)c1ccc(OC)cc1, the inhibition is reported as inactive: 5.95%.
For C[N+]1=C2C=CC=CC=C2SC12C([N+](=O)[O-])=CC([N+](=O)[O-])=C[C-]2[N+](=O)[O-] (configuration not stated), the inhibition was inactive: -6.99%.
For Nc1ccc([As](=O)(O)c2ccc(N)cc2)cc1, the inhibition was inactive: -6.54%.
Clc1ccc(Cl)c(NC2=NCC(CBr)S2)c1 (configuration not stated) was tested, and the inhibition was inactive: -1.77%.
For CN1CCCC(OC(=O)C(c2ccccc2)c2ccccc2)C1 (configuration not stated), the inhibition was inactive: 1.25%.
For Cc1ccc(OP(=O)(Nc2nccs2)Oc2ccc(C)cc2)cc1, the inhibition was inactive: -8.06%.
For COc1ccccc1OP(=O)(Nc1ccc(C)cn1)Oc1ccccc1OC, the inhibition was inactive: 1.35%.
With Cc1ccc(N/C(=N/P(=O)(N2CCOCC2)N2CCOCC2)N2CCOCC2)cc1 the inhibition was inactive: -5.11%.
With CN(C(=O)Cc1ccc(Cl)c(Cl)c1)[C@H]1CCCC[C@H]1N1CCCC1 the inhibition was inactive: 3.93%.
